In PubChem BioAssay AID1434 (Sanford-Burnham Center for Chemical Genomics, 2008):
Only a part is listed here, and it is no random draw. The source made the active and inactive calls.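 How the source made its calls: active means mean inhibition across duplicate retests at 20 µM reaching about 50% (limit read from the data); inactive means the rest, inconclusive results apart.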

Amino acid sequences for entries named in this document (tags omitted).
UniProt Q01196, whole entry, looked up: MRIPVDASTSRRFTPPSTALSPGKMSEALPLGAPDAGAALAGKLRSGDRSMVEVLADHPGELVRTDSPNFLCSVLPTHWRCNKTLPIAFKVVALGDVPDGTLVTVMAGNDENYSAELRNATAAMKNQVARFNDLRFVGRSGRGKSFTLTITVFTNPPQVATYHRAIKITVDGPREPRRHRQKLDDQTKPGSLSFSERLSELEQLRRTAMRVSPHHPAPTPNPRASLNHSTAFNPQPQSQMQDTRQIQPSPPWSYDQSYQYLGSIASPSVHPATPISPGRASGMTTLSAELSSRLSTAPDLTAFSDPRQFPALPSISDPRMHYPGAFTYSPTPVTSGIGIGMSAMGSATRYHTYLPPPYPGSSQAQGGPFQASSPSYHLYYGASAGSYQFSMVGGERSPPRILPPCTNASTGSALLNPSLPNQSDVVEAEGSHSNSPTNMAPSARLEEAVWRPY
UniProt Q13951, whole entry, looked up: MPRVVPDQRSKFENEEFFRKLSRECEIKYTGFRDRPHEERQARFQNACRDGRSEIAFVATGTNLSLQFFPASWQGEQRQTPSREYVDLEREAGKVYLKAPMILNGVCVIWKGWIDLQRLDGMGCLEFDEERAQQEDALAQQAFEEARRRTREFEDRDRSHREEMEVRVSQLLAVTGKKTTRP

The compounds below were run against Runt-related transcription factor 1 (Homo sapiens) + Core-binding factor subunit beta (Homo sapiens) (UniProt Q01196+Q13951) (assay: disruptors of Runt domain/CBFb-SMMHC interaction – biochemical, FRET, Cerulean-Runt, Venus-CBFb-SMMHC, uHTS, primary screen (AID 1434;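 further: 0% = DMSO wells and 100% = wells with excess untagged CBFb-SMMHC; inhibitors lower the FRET ratio by blocking Runt binding to CBFb-SMMHC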)). Conditions: Cerulean-Runt/Venus-CBFb-SMMHC FRET ratio 530/480, 1 h; at 20 µM; hits give high values.

| Structure (SMILES) | inhibition |
| --- | --- |
| CCCOc1ccc(C)cc1CN(CCCl)CCCl | inactive: -1.6% |
| COc1cc(OC)cc(C(=O)NCC2(N3CCOCC3)CCCCC2)c1 | inactive: -1.4% |
| CCC(CO)(C(=O)OC1CN2CCC1CC2)c1ccccc1 (centres undefined) | inactive: 0.5% |
| CC(C)(C)OC(=O)N1CCC(Nc2ccccc2)CC1 | inactive: -0.6% |
| CCOc1ncccc1C(=O)NCC1(N2CCOCC2)CCCCC1 | inactive: 4.4% |
| CN(C)c1ccc(C(=O)NCC2(N3CCCCC3)CCCCC2)cc1 | inactive: -0.1% |
| CCN1CCC(Nc2cccc(F)c2)CC1 | inactive: 2.3% |
| Fc1ccccc1NC1CCN(Cc2ccccc2)CC1 | inactive: 4% |
| c1ccc(CN2CCC(Nc3ccccc3)CC2)cc1 | inactive: -2.6% |
| N#Cc1ccc(C(=O)NCC2(N3CCCCC3)CCCCC2)cc1 | inactive: -0.7% |
| O=C(OC1CN2CCC1CC2)C1c2ccccc2C=Cc2ccccc21 (centres undefined) | inactive: 2.4% |
| N/C(=N\O)c1c(N)no[n+]1[O-] | inactive: 2.7% |
| COc1ccc(C(=O)NCC2(N3CCOCC3)CCCCC2)cc1OC | inactive: 2.5% |
| CC(C)c1ccc(NC2CCN(C(=O)OC(C)(C)C)CC2)cc1 | inactive: 5.3% |
| COc1ccc(CN(CCCl)CCCl)cc1Cl | inactive: -1.7% |
| CN(C)c1cccc(C(=O)NCC2(N3CCCCC3)CCCCC2)c1 | inactive: 0% |
| O=C(NCC1(N2CCOCC2)CCCCC1)c1cc(=O)[nH]c2ccccc12 | inactive: -7.4% |
| CN1CCN(CCOC(=O)C(O)(c2ccccc2)c2ccccc2)CC1 | inactive: 3.3% |
| COc1ccc(NC2CCN(C(=O)OC(C)(C)C)CC2)cc1 | inactive: 10.4% |
| N#CC1(Nc2ccccc2)CCN(CCc2ccccc2)CC1 | inactive: -2.3% |
| O=C(NCC1(N2CCCCC2)CCCCC1)c1cccc([N+](=O)[O-])c1 | inactive: -1.2% |
| Cc1ccc(OCC(C)C)c(CN(CCCl)CCCl)c1 | inactive: -0.9% |
| COc1ccc(NC2CCN(CCc3ccccc3)CC2)c(OC)c1 | inactive: 0.7% |
| CCOc1ccc(C)cc1CN(CCCl)CCCl | inactive: -1.4% |
| N#CC1(Nc2ccccc2)CCN(Cc2ccccc2)CC1 | inactive: 3.7% |
| O=C(OC1CN2CCC1CC2)C1c2ccccc2Oc2ccccc21 (centres undefined) | inactive: -1.2% |
| CCOC(=O)N1CCC(Nc2ccc(OC)cc2)CC1 | inactive: -0.5% |
| O=C(NCC1(N2CCOCC2)CCCCC1)c1cc2ccccc2o1 | inactive: 0.3% |
| COc1ccc(C(=O)NCC2(N3CCCCC3)CCCCC2)c(OC)c1OC | inactive: -8.2% |
